Earlier results as cited in US20100022574A1, “Methods to Treat Pain Using an Alpha-2 Adrenergic Agonist and an Endothelin Antagonist” (EndogenX, Inc., priority 2008, published 2010).

Chains of the proteins cited; added tags and fusions are not shown. Lines headed by an entry give the natural chain unless they say otherwise; changes in a name come on top.
UniProt P41145: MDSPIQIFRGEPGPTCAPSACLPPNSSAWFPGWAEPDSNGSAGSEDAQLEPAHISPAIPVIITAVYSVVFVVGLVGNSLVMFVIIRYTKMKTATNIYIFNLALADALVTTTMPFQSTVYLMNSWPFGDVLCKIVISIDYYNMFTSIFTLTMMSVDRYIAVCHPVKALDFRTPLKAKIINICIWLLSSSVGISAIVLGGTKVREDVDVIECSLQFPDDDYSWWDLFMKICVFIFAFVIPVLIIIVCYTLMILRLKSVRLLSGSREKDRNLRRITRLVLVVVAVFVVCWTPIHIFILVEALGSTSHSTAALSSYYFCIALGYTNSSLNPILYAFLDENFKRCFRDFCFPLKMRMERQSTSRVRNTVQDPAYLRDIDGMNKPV

How the values were obtained:
[1] = administered orally; cited from earlier work
K-opioid receptors = K-opioid receptors (Homo sapiens, UniProt P41145); conditions: read-out: Ki for K-opioid receptors; cited from earlier work

Compound	absorption and excretion [1]	Ki (K-opioid receptors) [nM]
4-amino-N-(3,4-dimethyloxazol-5-yl)-benzenesulfonamide [Sulfisoxazole]	rapidly absorbed and rapidly excreted	–
COc1ccc2c3c1O[C@H]1C(=O)CC[C@@]4(O)[C@@H](C2)N(C)CC[C@]314.Cl [Oxycodone, 4,5α-epoxy-14-hydroxy-3-methoxy-17-methylmorphinan-6-one hydrochloride]	–	677
